The values below come from ChEMBL document CHEMBL1138017, “Synthesis and evaluation of pyridazinylpiperazines as vanilloid receptor 1 antagonists” (Bioorg Med Chem Lett, 2004).

The chains behind the UniProt entries cited, without tags or fusion partners.
UniProt Q8NER1, whole entry: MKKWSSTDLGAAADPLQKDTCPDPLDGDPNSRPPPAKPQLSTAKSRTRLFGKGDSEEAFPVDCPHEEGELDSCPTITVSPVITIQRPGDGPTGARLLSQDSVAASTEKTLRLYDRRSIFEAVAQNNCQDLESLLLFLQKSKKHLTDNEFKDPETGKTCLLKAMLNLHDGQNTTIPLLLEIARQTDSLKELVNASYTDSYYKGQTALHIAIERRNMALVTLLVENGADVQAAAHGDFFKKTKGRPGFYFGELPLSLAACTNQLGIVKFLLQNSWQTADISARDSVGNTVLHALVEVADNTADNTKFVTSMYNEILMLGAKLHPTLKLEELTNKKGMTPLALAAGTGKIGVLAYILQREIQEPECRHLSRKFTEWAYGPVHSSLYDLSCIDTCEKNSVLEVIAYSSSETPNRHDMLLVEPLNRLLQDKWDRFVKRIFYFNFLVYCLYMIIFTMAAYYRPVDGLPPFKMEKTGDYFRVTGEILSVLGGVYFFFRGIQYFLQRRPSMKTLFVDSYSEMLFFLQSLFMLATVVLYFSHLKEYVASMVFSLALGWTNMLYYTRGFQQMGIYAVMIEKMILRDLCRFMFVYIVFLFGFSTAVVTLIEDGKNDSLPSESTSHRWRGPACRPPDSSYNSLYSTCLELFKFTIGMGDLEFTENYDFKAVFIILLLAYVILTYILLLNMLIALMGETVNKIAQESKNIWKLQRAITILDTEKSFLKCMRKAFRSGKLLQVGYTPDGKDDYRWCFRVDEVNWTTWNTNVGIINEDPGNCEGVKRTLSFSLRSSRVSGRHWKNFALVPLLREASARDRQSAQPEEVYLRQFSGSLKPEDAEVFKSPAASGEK

Molecules are shown by their SMILES.

The target in assay [1] is T1, Transient receptor potential cation channel subfamily V member 1 (Homo sapiens, UniProt Q8NER1). The experiment in a line: Inhibition of human vanilloid receptor 1 in HEK293 cells in pH 5.5-induced FLIPR assay. Format: cell-based.
Assay [2] has as its target T1, Transient receptor potential cation channel subfamily V member 1. The experiment in a line: Inhibition of human vanilloid receptor 1 in HEK293 cells in capsaicin-induced FLIPR assay. In kind it is cell-based. A digest of the protocol: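 Human VR1 stably expressed in HEK293 cells; calcium influx evoked by 100 nM capsaicin, read by FLIPR. IC50 is the mean of at least three determinations.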

As for `Cc1cnnc(N2CCN(C(=O)Nc3ccc(C(C)(C)C)cc3)[C@H](C)C2)c1`, the figures for the IC50 in assay [1] and in assay [2] were more than 25 µM and 8.59 µM, respectively.
In the same order, the values of `CC(C)(C)c1ccc(NC(=O)N2CCN(c3ccc(Cl)nn3)CC2)cc1` are more than 10 µM and 3.83 µM.
As for `Cc1cc(N2CCN(C(=O)Nc3nc4ccc(F)cc4s3)[C@H](C)C2)nnc1Cl`, half-maximal inhibition in assay [2] (IC50) required 1.62 µM.

For orientation: IC50 means the concentration that gives 50% inhibition. Low readings indicate inhibition by little substance, high ones a need for much substance.
